# Source: patent US20220287970A1, “COMPOSITION FOR INHIBITING SAPONIN-INDUCED HEMOLYSIS, CONTAINING CATIONIC LIPOSOME” (priority 2020, published 2022)
# System: red blood cells (RBCs)
# Experiment: Hemolysis analysis: steroidal and triterpenoid saponins (Example 5)
# Type: cell-based
# Details: saponin alone
# Protocol: 1) The liposome, saponin, sucrose in a HEPES buffer (pH 7.4), and distilled water were placed in a 96-well plate, as shown in Tables 14 and 15 below.
# 2) The reaction was carried out at room temperature and 300 rpm for 30 minutes using an orbital shaker.
# 3) 3 mL of RBCs were suspended in 10 mL of PBS and centrifuged at room temperature and 1500 rpm for 5 minutes, after which the supernatant was removed.
# 4) Steps 2) and 3) were repeated three times, and thus the RBCs were washed.
# 5) The RBC pellet was suspended in 1 mL of PBS and diluted to 1/100, followed by cell counting.
# 6) The RBCs were diluted to 1.5×10^9 cells/mL using PBS and dispensed at 3×10^7 cells/20 μL/well in a 96-well plate treated with the test material of 2) above.
# 7) The reaction was carried out at room temperature and 300 rpm for 1 hour using an orbital shaker.
# 8) The 96-well plate was centrifuged at room temperature and 1500 rpm for 5 minutes.
# 9) 50 μL of the supernatant was transferred to a new 96-well plate, and the absorbance was then measured at 415 nm.
# 10) Hemolysis (%) was calculated using the following equation.
# Hemolysis (%)=(OD of sample OD of 0% hemolysis)/(0D of 100% hemolysis−OD of 0% hemolysis)×100
substance,measurement,value
aescin,amount of saponin at which 60% hemolysis was observed,2.5 µg
same,amount of saponin at which 100% hemolysis was observed,5 µg
